Measured values published in ChEMBL document CHEMBL1147661, “The first potent inhibitor of mammalian group X secreted phospholipase A2: elucidation of sites for enhanced binding” (J Med Chem, 2006).

How the values were obtained:
[1] = biological target: T1, Phospholipase A2, membrane associated (Mus musculus, UniProt P31482); assay: Inhibition of mouse recombinant sPLA2 G2A
T1 sequence (P31482 whole entry): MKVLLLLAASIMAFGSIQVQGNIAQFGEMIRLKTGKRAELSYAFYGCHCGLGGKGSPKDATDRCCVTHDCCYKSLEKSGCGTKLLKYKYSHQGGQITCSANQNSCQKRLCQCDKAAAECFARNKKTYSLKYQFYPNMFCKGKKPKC

[2] = biological target: T2, Group 10 secretory phospholipase A2 (Homo sapiens, UniProt O15496); assay: Inhibition of human recombinant sPLA2 G10
T2 sequence (O15496 whole entry): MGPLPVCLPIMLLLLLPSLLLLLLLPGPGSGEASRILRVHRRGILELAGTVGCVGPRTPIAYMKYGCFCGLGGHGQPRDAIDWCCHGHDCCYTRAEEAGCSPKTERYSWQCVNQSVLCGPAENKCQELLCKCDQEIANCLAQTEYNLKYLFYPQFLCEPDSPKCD

[3] = biological target: T3, Group 10 secretory phospholipase A2 (Mus musculus, UniProt Q9QXX3); assay: Inhibition of mouse recombinant sPLA2 G10
T3 sequence (Q9QXX3 whole entry): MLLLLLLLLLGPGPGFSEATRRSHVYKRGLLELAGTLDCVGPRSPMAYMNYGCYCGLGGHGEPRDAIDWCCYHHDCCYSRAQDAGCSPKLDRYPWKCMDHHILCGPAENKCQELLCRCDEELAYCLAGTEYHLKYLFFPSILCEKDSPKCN

[4] = biological target: T4, Phospholipase A2, membrane associated (Homo sapiens, UniProt P14555); assay: Inhibition of human recombinant sPLA2 G2A
T4 sequence (P14555 whole entry): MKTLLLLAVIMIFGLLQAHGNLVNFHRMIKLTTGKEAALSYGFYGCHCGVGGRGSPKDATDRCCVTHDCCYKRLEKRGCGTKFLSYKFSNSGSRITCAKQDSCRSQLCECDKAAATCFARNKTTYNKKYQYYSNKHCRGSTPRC

SMILES	IC50 [1]	IC50 [2]	IC50 [3]	IC50 [4]
CCc1c(C(=O)C(N)=O)c2c(OCC(=O)O)cc(C)cc2n1Cc1ccccc1	50 nM	75 nM	75 nM	
CCc1c(C(=O)C(N)=O)c2c(OCC(=O)O)cccc2n1Cc1ccccc1 [VARESPLADIB]		75 nM		125 nM
